# Patent US8952020B2, “Optically active pyrazolylaminoquinazoline, and pharmaceutical compositions and methods of use thereof” (Ambit Biosciences Corp., priority 2010, dated 2015)
# By UniProt entry, the sequences of proteins in these tests, tags left out.
# UniProt P33261, whole entry: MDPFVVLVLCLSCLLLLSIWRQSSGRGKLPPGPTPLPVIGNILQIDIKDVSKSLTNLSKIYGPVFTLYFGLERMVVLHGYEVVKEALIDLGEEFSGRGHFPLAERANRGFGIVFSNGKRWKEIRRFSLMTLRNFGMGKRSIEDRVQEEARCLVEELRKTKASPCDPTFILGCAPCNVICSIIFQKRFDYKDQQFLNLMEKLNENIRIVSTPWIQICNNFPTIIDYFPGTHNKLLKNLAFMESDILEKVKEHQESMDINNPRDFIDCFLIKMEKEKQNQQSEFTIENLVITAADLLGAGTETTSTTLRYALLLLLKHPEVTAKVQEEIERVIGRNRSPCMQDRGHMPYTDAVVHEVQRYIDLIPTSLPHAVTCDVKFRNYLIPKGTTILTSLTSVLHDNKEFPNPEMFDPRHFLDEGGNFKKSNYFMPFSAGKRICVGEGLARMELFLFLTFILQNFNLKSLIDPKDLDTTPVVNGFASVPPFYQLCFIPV
# UniProt P08684, whole entry: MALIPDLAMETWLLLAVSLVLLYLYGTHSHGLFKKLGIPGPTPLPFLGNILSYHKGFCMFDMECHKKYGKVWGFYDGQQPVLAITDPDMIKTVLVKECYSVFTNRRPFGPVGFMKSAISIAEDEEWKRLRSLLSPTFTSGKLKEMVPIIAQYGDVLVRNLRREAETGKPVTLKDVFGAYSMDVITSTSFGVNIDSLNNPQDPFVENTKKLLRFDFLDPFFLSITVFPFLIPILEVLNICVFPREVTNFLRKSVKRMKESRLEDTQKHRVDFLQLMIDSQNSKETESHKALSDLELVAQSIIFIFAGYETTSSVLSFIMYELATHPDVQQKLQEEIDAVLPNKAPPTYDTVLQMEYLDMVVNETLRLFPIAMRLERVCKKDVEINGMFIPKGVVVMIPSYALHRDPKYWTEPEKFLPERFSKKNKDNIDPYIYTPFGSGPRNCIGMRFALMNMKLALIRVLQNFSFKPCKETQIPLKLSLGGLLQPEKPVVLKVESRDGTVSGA
# UniProt P0DMS8, whole entry: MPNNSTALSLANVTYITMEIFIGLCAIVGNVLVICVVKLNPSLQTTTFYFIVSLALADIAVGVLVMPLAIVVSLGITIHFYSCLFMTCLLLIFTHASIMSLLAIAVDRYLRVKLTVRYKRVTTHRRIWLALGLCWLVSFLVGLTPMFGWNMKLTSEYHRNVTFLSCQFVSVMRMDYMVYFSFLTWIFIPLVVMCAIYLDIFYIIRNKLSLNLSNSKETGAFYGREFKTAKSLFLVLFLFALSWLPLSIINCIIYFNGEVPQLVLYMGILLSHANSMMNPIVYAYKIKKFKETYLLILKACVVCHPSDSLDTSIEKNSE
# Legend:
# [1] = molecular target: CYP2C19 (Homo sapiens, UniProt P33261); experiment: CYP450 inhibition in human liver microsomes
# [2] = molecular target: CYP3A4 (Homo sapiens, UniProt P08684); experiment: CYP450 inhibition in human liver microsomes
# [3] = molecular target: T1, human adenosine A3 receptor (Homo sapiens, UniProt P0DMS8); experiment: Adenosine A3 receptor radioligand binding assay ([125I] AB-MECA); details: 0.5 nM [125I] AB-MECA, CHO-K1 cells
# T1 construct: expressed in transfected cells; host or cells: CHO-K1
SMILES,IC50 [1] [µM],IC50 [2] [µM],IC50 [3] [µM]
Cc1cc(Nc2nc(C(O)c3ccc(F)cc3)nc3ccccc23)n[nH]1 (racemic) [Racemate],14.7,10.9,–
Cc1cc(Nc2nc([C@H](O)c3ccc(F)cc3)nc3ccccc23)n[nH]1 [(R)(−)],11.8,14.8,0.028
Cc1cc(Nc2nc([C@@H](O)c3ccc(F)cc3)nc3ccccc23)n[nH]1 [(S)(+)],15.9,10.5,–
